# Apparent affinities of Ab-95 variants for a coronavirus HR2 peptide

Reference: Engelhart et al. 2022, doi:10.1038/s41597-022-01779-4. File: FLAb, binding data.

Antigen: PDVDLGDISGINAS, a 14-residue peptide of the SARS-CoV-2 spike HR2 region.

Parent scFv Ab-95: VH joined to VL by the linker GGGGSGGGGSGGGGS. Changes lie in the light chain CDRs alone.
VH: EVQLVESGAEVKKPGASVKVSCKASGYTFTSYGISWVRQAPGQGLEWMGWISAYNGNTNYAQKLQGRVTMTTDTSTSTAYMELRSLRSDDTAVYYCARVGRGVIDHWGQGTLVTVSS
VL: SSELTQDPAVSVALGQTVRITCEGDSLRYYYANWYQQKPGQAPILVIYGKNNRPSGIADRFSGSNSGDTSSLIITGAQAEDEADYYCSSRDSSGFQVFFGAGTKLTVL

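In library AAYL52, one, two or three CDR residues were substituted; doubles and triples were drawn at random. Affinity was read by AlphaSeq, a pooled yeast mating assay with surface-displayed partners. Pairs that bind mate more often; barcode pairs of the diploids are counted by sequencing. The ratio of observed to expected reads was calibrated, replicate by replicate, on BCL2-family standards whose Kd was known from biolayer interferometry. Mating was done three times.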

Each variant is given by its three light chain CDRs, as the data file delimits them; those of the parent are EGDSLRYYYAN, GKNNRPS, SSRDSSGFQVF. All variants listed here change N52 of the VL, counted from its first residue. Each Kd is an estimate from the mating assay, the geometric mean of the replicates in which the pair was seen; lower is stronger. "nd" marks a missing value. The strain was present, yet no cells mated with the target were sequenced in any replicate, which points to weak or no binding.

With EGDSLRYYYAN | GKNQRPS | SSYDSSGFKVF the result was nd (0 of 3 replicates). With EGDSLRYYYAN | GKNSRPS | SSRDESRFQVF the result was 1.1 µM (2 of 3 replicates). With EGDSLRYYYAN | AKNDRPS | SSRDSSVFQVF the result was 15 µM (2 of 3 replicates). Variant EGDVLRYYYAN | GKNGRLS | SSRDSSGFQVF gave 4.2 µM (2 of 3 replicates). Variant EGDSLRYYHAN | GKNPRPS | SSFDSSGFQVF gave 91 µM (2 of 3 replicates). Variant EGDSLRYYYCN | GKNARPS | SSRDSSGFQVF showed 390 nM (3 of 3 replicates).

For EGDSLRYYYYN | GKNCRPS | SSRDSSGFNVF, the assay gave 13 µM (1 of 3 replicates). For EGDSLRYYYAN | GKWYRPS | SSRWSSGFQVF, the assay gave 2.2 µM (1 of 3 replicates). Variant EGDSLRYYYAN | GKNHRYS | SSRDSSGFQVF gave 5.4 µM (3 of 3 replicates). With EGDNLRYYYAN | GKNMRPS | SSRWSSGFQVF the result was 2.1 µM (3 of 3 replicates). Variant EGDSERYYYAN | GKNRRPS | SSRMSSGFQVF showed 8.8 µM (3 of 3 replicates). Variant EGDSLRYYYAN | VKNMRPS | SSFDSSGFQVF gave 11 µM (1 of 3 replicates).

Variant EGDVLRYYYAN | GKNLRPS | SSRDSSGFQVH gave nd (0 of 3 replicates). For EGDSLRYQYAL | GKNLRPS | SSRDSSGFQVF, the assay gave 620 nM (3 of 3 replicates). Variant EGDSLRYYYAN | GKNIRPS | SSRDSSGFQVF showed 230 nM (3 of 3 replicates). Variant EGDSLRYYYAN | GKNPRPS | SSRDSFPFQVF showed 420 µM (2 of 3 replicates). Variant EGDTLRYYYAN | GKNFRPS | SSRDSSGFQVF gave 24 µM (3 of 3 replicates). Variant EGDSSRYYYAN | GKNWRPS | SSRDSSGFNVF gave 830 nM (3 of 3 replicates).

Variant EGDHLRYYYAN | GENDRPS | SSRDSSGFQVF gave 4.7 µM (3 of 3 replicates). With EGDSLRYYYAN | GKNDRPS | CSRQSSGFQVF the result was 360 nM (3 of 3 replicates). Variant EGDSLRYYYAN | GKNHRPR | NSRDSSGFQVF gave 1.7 µM (1 of 3 replicates). Variant EGDSLRYYYAN | GWNPRPS | SSRDSSGFQVF showed nd (0 of 3 replicates). With EGDSLRYYDAN | VKNSRPS | SSRDSSGFQVF the result was 11 µM (1 of 3 replicates). Variant EGDSLRYYYAN | GKNPRPI | SSRDSTGFQVF showed 7.7 µM (1 of 3 replicates).

For EGDSLRYYYHN | GKNPRPS | SSRDSSGFQVF, the assay gave nd (0 of 3 replicates). Variant TGDSLRYYYAN | QKNIRPS | SSRDSSGFQVF gave 460 nM (3 of 3 replicates). Variant EGDSLRYYYAN | GKNTRPS | PSRDSSGFEVF showed 150 nM (3 of 3 replicates). Variant EGDSLRYYYAN | GKNPRPT | SSRDSSGGQVF showed 20 µM (1 of 3 replicates). Variant EGDSLRYDYAD | GKNTRPS | SSRDSSGFQVF showed 85 µM (3 of 3 replicates). Variant EGDSLRYYYAN | GKNDRPS | NSRDSSGFQVG showed 280 nM (3 of 3 replicates).

Variant EGDSLRYYYAN | GKNVRPS | SVRDSSGFQSF gave 40 µM (3 of 3 replicates). Variant EGDSLRYYYAN | GKTQRPS | SSRDSSGFQHF showed 30 µM (1 of 3 replicates). Variant EGDSLRYYYAQ | GKNCRPS | SSRDSSTFQVF gave 4.1 µM (3 of 3 replicates). Variant EGFSLRYYYAN | GKNQRPS | SSRDSSGFQEF gave 10 µM (2 of 3 replicates). For EWDSLRCYYAN | GKNTRPS | SSRDSSGFQVF, the assay gave 16 µM (1 of 3 replicates). Variant EGDNLRYYYAN | GKNPRPS | SSRDSGGFQVF showed 24 µM (1 of 3 replicates).

Variant EGDSLRAYYAN | GKNRRPS | SSRDFSGFQVF gave 710 nM (3 of 3 replicates). Variant EGDSLRYYYAN | GKNRCPS | SSRDSNGFQVF gave 4.7 µM (2 of 3 replicates). Variant EGDWLRYYYAN | GKNSRPS | SSRDSSRFQVF showed 10 µM (2 of 3 replicates). For YGDSLRYYYAN | GKNERPL | SSRDSSGFQVF, the assay gave 270 nM (3 of 3 replicates). Variant EGDSLRYYYAN | GKHCRPS | SSRDSSIFQVF showed 8.8 µM (1 of 3 replicates). Variant EGDSLRYYYAN | GKNRRPS | SSRDSSGCQVF showed 720 nM (2 of 3 replicates).

For EGDSLRYYYAN | GKNVRPS | SSRDSSYFGVF, the assay gave 260 nM (3 of 3 replicates).

Top 2 of the variants detected in all replicates, tightest first:

EGDSLRYYYAN | GKNTRPS | PSRDSSGFEVF: 150 nM (3 of 3 replicates).
EGDSLRYYYAN | GKNIRPS | SSRDSSGFQVF: 230 nM (3 of 3 replicates).

Three control strains display no target. For library AAYL52, 28% of the pairings with them gave a signal, with a median of 8.2 µM and one signal in twenty below 800 nM, so weak values seen in few replicates may be background. For reference, the parent read 200 nM as the reference entry and 180 nM as a member of this library.